Several values for one entry are separate records, joined by “and”; a condition that tells them apart may be missing. Identical values can stand only once. Like-named read-outs stand apart in the source and are kept apart here.

Amino acid sequences for entries named in this document (tags omitted). A change or cut given only in a name is not applied to a line headed by its entry.
UniProt P35346: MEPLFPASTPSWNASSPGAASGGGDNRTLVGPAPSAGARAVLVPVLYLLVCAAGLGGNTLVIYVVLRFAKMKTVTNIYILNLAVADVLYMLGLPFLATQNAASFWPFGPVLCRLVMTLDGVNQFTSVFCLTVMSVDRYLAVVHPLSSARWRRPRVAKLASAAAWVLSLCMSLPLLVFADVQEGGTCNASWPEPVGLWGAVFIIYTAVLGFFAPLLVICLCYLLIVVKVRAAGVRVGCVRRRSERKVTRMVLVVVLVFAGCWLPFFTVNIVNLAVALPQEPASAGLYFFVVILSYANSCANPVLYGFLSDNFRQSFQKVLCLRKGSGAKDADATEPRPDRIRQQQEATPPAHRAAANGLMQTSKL
UniProt P31391: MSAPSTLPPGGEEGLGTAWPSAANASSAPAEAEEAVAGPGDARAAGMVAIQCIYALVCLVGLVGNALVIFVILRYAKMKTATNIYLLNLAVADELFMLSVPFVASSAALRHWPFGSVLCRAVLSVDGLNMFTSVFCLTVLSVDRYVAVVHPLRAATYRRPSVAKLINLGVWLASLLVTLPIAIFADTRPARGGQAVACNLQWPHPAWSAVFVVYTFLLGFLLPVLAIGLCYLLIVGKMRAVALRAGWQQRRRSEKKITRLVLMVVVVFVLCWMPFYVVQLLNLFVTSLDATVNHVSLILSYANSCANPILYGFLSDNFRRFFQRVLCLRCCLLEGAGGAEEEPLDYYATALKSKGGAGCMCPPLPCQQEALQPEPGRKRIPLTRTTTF
UniProt P30874: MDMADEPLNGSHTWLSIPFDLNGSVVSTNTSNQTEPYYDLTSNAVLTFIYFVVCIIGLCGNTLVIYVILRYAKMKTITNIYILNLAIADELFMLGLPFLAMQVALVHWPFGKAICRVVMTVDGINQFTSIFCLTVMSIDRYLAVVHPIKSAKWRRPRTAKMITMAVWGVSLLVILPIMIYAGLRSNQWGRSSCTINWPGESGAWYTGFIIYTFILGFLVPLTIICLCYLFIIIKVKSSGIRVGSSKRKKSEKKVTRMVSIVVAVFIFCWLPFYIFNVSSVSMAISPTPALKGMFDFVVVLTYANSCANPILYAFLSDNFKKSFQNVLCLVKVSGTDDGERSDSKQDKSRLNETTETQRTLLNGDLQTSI
UniProt P32745: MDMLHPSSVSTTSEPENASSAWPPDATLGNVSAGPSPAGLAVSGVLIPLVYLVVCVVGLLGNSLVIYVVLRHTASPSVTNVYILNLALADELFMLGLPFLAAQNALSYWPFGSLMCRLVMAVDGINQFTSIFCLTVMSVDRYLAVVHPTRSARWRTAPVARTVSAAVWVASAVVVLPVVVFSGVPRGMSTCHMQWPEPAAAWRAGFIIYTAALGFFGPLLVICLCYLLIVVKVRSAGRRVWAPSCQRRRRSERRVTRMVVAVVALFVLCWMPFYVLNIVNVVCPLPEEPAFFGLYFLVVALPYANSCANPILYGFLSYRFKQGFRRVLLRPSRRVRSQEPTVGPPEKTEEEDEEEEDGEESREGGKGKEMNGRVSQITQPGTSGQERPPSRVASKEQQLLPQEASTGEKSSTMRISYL
UniProt P30872: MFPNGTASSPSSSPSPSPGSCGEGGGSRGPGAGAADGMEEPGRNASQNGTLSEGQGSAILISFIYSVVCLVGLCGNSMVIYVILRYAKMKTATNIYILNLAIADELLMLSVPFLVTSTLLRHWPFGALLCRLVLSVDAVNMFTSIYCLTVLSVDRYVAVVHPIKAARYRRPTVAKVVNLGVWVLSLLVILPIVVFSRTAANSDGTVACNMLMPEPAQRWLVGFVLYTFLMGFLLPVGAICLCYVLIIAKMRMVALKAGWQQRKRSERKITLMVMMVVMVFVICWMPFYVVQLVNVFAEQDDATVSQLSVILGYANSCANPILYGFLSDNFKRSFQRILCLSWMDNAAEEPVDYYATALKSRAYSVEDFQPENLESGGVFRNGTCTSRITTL

The target of data set [1] is T1, SSTR5 (Homo sapiens, UniProt P35346).
The nature of data set [2]: Pharmacokinetics test with rats (intravenous and subcutaneous administration). Conditions: rats; for AUC, intravenous administration: 40 nmol/kg; for bioavailability (BA): subcutaneous vs intravenous AUC; for MRT / T1/2: Tables 5B-5F (unit not given; Table 5A: min).
Another data set has as its target SSTR4 (Homo sapiens, UniProt P31391). As to the kind of experiment: Competitive binding assay with [125I]Tyr11-Somatostatin 14, SSTR4.
Data set [3] deals with T1, SSTR5. As to the kind of experiment: Agonist activity evaluation (cAMP production suppression), SSTR5 receptor expression cells. The data set is classed as cell-based. Further details: host or cells: CHO-K1 cells.
Data set [4] deals with T2, SSTR2 (Homo sapiens, UniProt P30874). As to the kind of experiment: Competitive binding assay with [125I]Tyr11-Somatostatin 14, SSTR2. Conditions: for Ki: read-out: Ki value against SSTR2, Example 69-2, Table 3B; for Ki value against SSTR2, folds that of SRIF14: Example 69-2.
A further data set deals with SSTR3 (Homo sapiens, UniProt P32745). As to the kind of experiment: Competitive binding assay with [125I]Tyr11-Somatostatin 14, SSTR3. The conditions noted are these: for Ki: read-out: Ki value against SSTR3, Example 69-2, Table 3B.
The target of data set [5] is T1, SSTR5. As to the kind of experiment: Competitive binding assay with [125I]Tyr11-Somatostatin 14, SSTR5. Conditions: Example 69-2.
The target in the next data set is SSTR1 (Homo sapiens, UniProt P30872). As to the kind of experiment: Competitive binding assay with [125I]Tyr11-Somatostatin 14, SSTR1. Conditions: Example 69-2.
Data set [6] concerns the target T2, SSTR2.
Setting [7] is: intravenous administration, Table 5A.
[8] abbreviates: subcutaneous administration, Table 5A.
The mark [9] stands for this setting: read-out: Ki value against SSTR4; Example 69-2, Table 3B.
[10] abbreviates: intravenous administration, Tables 5B-5F (unit not given; Table 5A: min · nM).
Where [11] appears, read: subcutaneous administration, Tables 5B-5F (unit not given; Table 5A: nM).

A9C(disialo)-SRIF28 [Example 3] had an IC50 on SSTR5 [1] of 0.473 nM. For the same substance, in data set [2] (setting [7]), the AUC stood at 4083 ± 515 nM·min and the C0 is listed as 547 ± 211 nM. In data set [2] (setting [8]), this substance came in with an AUC of 2462 ± 64.0 nM·min and a Cmax of 30.2 ± 5.05 nM.
For the substance “C(disialo)-PEG linker-SRIF14 [Example 45]”, the Ki fell in the range of 1.39 to 172 nM at SSTR4 (setting [9]), 0.0536 to 6.58 nM at SSTR2 [4] and 0.16 to 13.8 nM at SSTR3. Further, the IC50 on SSTR5 [3] (read-out: IC50 of cAMP production suppressing action (agonist activity), SSTR5; CHO-K1 receptor expression cells, 10 μM forskolin) was determined as 0.18 nM. In addition, the “AUC increase compared to the non-glycosylated form SRIF14” value in data set [2] (administered intravenously) is 14-30 folds. Besides, in [2] (administered intravenously), the “t1/2 extension compared to the non-glycosylated form SRIF14” value is given as 22-33 folds.
As to F25C(disialo)-SRIF28 [Example 40], the 50% inhibitory concentration (IC50) at SSTR5 [5] (read-out: SSTR5 IC50, Table 3B) turned out to be 58 nM. The “Ki value against SSTR1, folds that of SRIF14” value at SSTR1 is on record as 310-5300 folds. Further, at SSTR2 [4], the “Ki value against SSTR2, folds that of SRIF14” value is on record as 310-5300 folds. The “Ki value against SSTR3, folds that of SRIF14” value on SSTR3 (Example 69-2) is 310-5300 folds.
In turn, “N5C(disialo)•A9C(disialo)-SRIF28 [Example 23]” came in with an inhibition constant Ki at SSTR2 [6] of 0.424 nM. In data set [2] (setting [7]), this substance had an AUC of 4465 ± 833 nM·min and a C0 of 664 ± 104 nM. In data set [2], the “AUC, intravenous administration” value lay in the range of 4029 to 4465 nM·min and the “bioavailability (BA)” value is 77-85%. In data set [2] (setting [8]), the AUC turned out to be 3450 ± 784 nM·min and the Cmax was 32.5 ± 7.06 nM.
Take S1C(disialo(amide))-SRIF28 [Example 60]: the Ki at SSTR4 (setting [9]) lay within 1.39 to 172 nM; at SSTR2 [4], 0.0536 to 6.58 nM; on SSTR3 it was 0.16 to 13.8 nM. Further, the “AUC increase compared to the non-glycosylated form SRIF28” value in [2] (administered intravenously) is given as 7-12 folds. Besides, the “t1/2 extension compared to the non-glycosylated form SRIF28” value in [2] (administered intravenously) is 11-14 folds.
The corresponding values for “S1C(disialo(aminoethylamide))-SRIF28 [Example 59]” are 1.39 to 172 nM, 0.0536 to 6.58 nM, 0.16 to 13.8 nM, 7-12 folds and 11-14 folds.
On to S1C(disialo)-F25Y-SRIF28 [Example 43], for which the Ki at SSTR4 (setting [9]) lay within 1.39 to 172 nM; at SSTR2 [4], 0.0536 to 6.58 nM; on SSTR3 it was 0.16 to 13.8 nM. For the same substance, the AUC came to 3538 in data set [2] (setting [10]) and 2725 in data set [2] (subcutaneous administration, Tables 5B-5F (unit not given; Table 5A: min · nM)). The C0 in [2] (intravenous administration, Tables 5B-5F (unit not given; Table 5A: nM)) amounted to 412. This substance registered a Cmax in data set [2] (setting [11]) of 47.8.
Take S1C(disialo)-SRIF28 [Example 1]: the Ki on SSTR4 (setting [9]) was in the range of 1.39 to 172 nM; on SSTR2 [4] it was 0.0536 to 6.58 nM; on SSTR3, 0.16 to 13.8 nM. The “AUC increase compared to the non-glycosylated form SRIF28” value in data set [2] (administered intravenously) is 8-23 folds and 11 folds. Also, the “t1/2 extension compared to the non-glycosylated form SRIF28” value in [2] (administered intravenously) is 13-18 folds and 13 folds. Moreover, the AUC in data set [2] (setting [7]) was determined as 4855 ± 1030 nM·min; in data set [2] (setting [10]), 5190; in data set [2] (setting [8]), 1773 ± 281 nM·min. Also, in data set [2] (setting [7]), the C0 amounted to 686 ± 363 nM. Besides, the MRT in [2] (intravenous administration) is listed as 19.1; in data set [2] (subcutaneous administration), 49.2. In addition, the T1/2 in data set [2] (intravenous administration) was 17.7; in data set [2] (subcutaneous administration), 31.2. In addition, the Cmax came to 28.9 ± 3.23 nM in data set [2] (setting [8]) and 30.1 in data set [2] (setting [11]). In addition, in data set [2], the “bioavailability (BA)” value is 37%. On SSTR3 (read-out: SSTR3 IC50, Table 3B, Example 69-2), the IC50 was 1.98 nM.
On to “S1C(disialo)•R13C(disialo)-SRIF28 [Example 22]”, for which, on SSTR2 [6], the Ki was 3.33 nM. In data set [2] (setting [7]), this substance registered an AUC of 4029 ± 184 nM·min and a C0 of 822 ± 106 nM. In data set [2], the “AUC, intravenous administration” value was 4029 to 4465 nM·min and the “bioavailability (BA)” value is 77-85%. In [2] (setting [8]), this substance had an AUC of 3407 ± 436 nM·min and a Cmax of 38.7 ± 8.73 nM.
For S1C(trisialo)-SRIF28 [Example 57], the inhibition constant (Ki) was 1.39 to 172 nM at SSTR4 (Example 69-2, Table 3B; read-out: Ki value against SSTR4); 0.0536 to 6.58 nM at SSTR2 [4]; 0.16 to 13.8 nM on SSTR3. For the same substance, the half-maximal inhibitory concentration (IC50) at SSTR5 [3] (CHO-K1 receptor expression cells, 10 μM forskolin; read-out: IC50 of cAMP production suppressing action (agonist activity), SSTR5) turned out to be 0.095 nM.
For T26C(disialo)-SRIF28 [Example 12], the “Ki value against SSTR5, folds that of SRIF14” value on SSTR5 [5] was 280-1600 folds. Besides, at SSTR2 [4], the “Ki value against SSTR2, folds that of SRIF14” value is on record as 280-1600 folds.

These data come from US9802996B2, “Glycosylated polypeptide and drug composition containing said polypeptide” (Glytech, Inc., priority 2011, dated 2017).
